Where “and” joins values, the source holds several entries; their conditions need not be identical. Equal entries are not always repeated.
Test: Solubility of increasing delta-9-THC concentration in alcohol:water:propylene glycol 35:10:55 vehicle, visual observation
Type: physicochemical
Conditions: Alcohol:Water:Propylene Glycol (35:10:55) (v/v); listed as delta-9-tetrahydrocannabinol

SMILES: CCCCCc1cc(O)c2c(c1)OC(C)(C)[C@@H]1CCC(C)=C[C@@H]21
- delta-9-tetrahydrocannabinol concentration able to be manufactured with this formulation: > 100 mg/mL and < 200 mg/mL

— patent publication US6747058B1, “Stable composition for inhalation therapy comprising delta-9-tetrahydrocannabinol and semiaqueous solvent therefor” (Unimed Pharmaceuticals, Inc., priority 1999, dated 2004)
